Assay results taken from IntAct's records for PubMed 19165148.

B1: Ultraviolet-B receptor UVR8 (Arabidopsis thaliana (Mouse-ear cress)), Q9FN03 (parent)
chain: MAEDMAADEVTAPPRKVLIISAGASHSVALLSGDIVCSWGRGEDGQLGHGDAEDRPSPTQLSALDGHQIVSVTCGADHTVAYSQSGMEVYSWGWGDFGRLGHGNSSDLFTPLPIKALHGIRIKQIACGDSHCLAVTMEGEVQSWGRNQNGQLGLGDTEDSLVPQKIQAFEGIRIKMVAAGAEHTAAVTEDGDLYGWGWGRYGNLGLGDRTDRLVPERVTSTGGEKMSMVACGWRHTISVSYSGALYTYGWSKYGQLGHGDLEDHLIPHKLEALSNSFISQISGGWRHTMALTSDGKLYGWGWNKFGQVGVGNNLDQCSPVQVRFPDDQKVVQVSCGWRHTLAVTERNNVFAWGRGTNGQLGIGESVDRNFPKIIEALSVDGASGQHIESSNIDPSSGKSWVSPAERYAVVPDETGLTDGSSKGNGGDISVPQTDVKRVRI
partner: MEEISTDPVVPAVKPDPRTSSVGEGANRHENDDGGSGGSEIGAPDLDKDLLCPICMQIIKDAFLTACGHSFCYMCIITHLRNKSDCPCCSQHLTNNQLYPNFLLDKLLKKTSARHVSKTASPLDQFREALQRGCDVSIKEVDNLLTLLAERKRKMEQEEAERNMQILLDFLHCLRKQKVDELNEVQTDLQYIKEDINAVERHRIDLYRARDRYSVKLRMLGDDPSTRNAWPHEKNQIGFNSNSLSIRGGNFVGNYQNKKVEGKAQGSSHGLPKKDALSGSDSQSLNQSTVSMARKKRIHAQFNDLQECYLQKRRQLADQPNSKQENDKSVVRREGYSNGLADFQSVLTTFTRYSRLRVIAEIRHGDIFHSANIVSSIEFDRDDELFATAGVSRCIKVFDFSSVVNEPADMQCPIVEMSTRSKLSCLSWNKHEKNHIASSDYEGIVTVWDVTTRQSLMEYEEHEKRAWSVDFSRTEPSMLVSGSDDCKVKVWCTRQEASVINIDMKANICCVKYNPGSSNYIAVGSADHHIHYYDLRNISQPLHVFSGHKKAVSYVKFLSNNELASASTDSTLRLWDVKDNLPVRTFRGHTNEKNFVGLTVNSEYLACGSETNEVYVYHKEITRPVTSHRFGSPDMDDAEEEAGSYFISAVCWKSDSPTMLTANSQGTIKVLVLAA
B2: E3 ubiquitin-protein ligase COP1 (Arabidopsis thaliana (Mouse-ear cress)), P43254 (parent)
chain: B1 partner
partner: B1 chain

Variants of: B1
Details: with cop1_arath COP1, P43254

Row | effect of a mutation on the interaction | Variant
1 | disrupting interaction | MAEDMAADEVTAPPRKVLIISAGASHSVALLSGDIVCSWGRGEDGQLGHGDAEDRPSPTQLSALDGHQIVSVTCGADHTVAYSQSGMEVYSWGWGDFGRLGHGNSSDLFTPLPIKALHGIRIKQIACGDSHCLAVTMEGEVQSWGRNQNGQLGLGDTEDSLVPQKIQAFEGIRIKMVAAGAEHTAAVTEDGDLYGWGWGRYRNLGLGDRTDRLVPERVTSTGGEKMSMVACGWRHTISVSYSGALYTYGWSKYGQLGHGDLEDHLIPHKLEALSNSFISQISGGWRHTMALTSDGKLYGWGWNKFGQVGVGNNLDQCSPVQVRFPDDQKVVQVSCGWRHTLAVTERNNVFAWGRGTNGQLGIGESVDRNFPKIIEALSVDGASGQHIESSNIDPSSGKSWVSPAERYAVVPDETGLTDGSSKGNGGDISVPQTDVKRVRI [G202R]
2 | disrupting interaction | MAEDMAADEVTAPPRKVLIISAGASHSVALLSGDIVCSWGRGEDGQLGHGDAEDRPSPTQLSALDGHQIVSVTCGADHTVAYSQSGMEVYSWGWGDFGRLGHGNSSDLFTPLPIKALHGIRIKQIACGDSHCLAVTMEGEVQSWSRNQNGQLGLGDTEDSLVPQKIQAFEGIRIKMVAAGAEHTAAVTEDGDLYGWGWGRYGNLGLGDRTDRLVPERVTSTGGEKMSMVACGWRHTISVSYSGALYTYGWSKYGQLGHGDLEDHLIPHKLEALSNSFISQISGGWRHTMALTSDGKLYGWGWNKFGQVGVGNNLDQCSPVQVRFPDDQKVVQVSCGWRHTLAVTERNNVFAWGRGTNGQLGIGESVDRNFPKIIEALSVDGASGQHIESSNIDPSSGKSWVSPAERYAVVPDETGLTDGSSKGNGGDISVPQTDVKRVRI [G145S]

Variants of: B2
Details: with uvr8_arath UVR8, Q9FN03

Row | effect of a mutation on the interaction | Variant
3 | disrupting interaction | G608R
